The experiment addresses Egl nine homolog 1 (Homo sapiens, UniProt Q9GZT9). Nature of the experiment: Inhibition of HIF-PHD2 (unknown origin) by fluorescence polarization assay.

Chains of the proteins cited; added tags and fusions are not shown. Lines headed by an entry give the natural chain unless they say otherwise; changes in a name come on top.
UniProt Q9GZT9: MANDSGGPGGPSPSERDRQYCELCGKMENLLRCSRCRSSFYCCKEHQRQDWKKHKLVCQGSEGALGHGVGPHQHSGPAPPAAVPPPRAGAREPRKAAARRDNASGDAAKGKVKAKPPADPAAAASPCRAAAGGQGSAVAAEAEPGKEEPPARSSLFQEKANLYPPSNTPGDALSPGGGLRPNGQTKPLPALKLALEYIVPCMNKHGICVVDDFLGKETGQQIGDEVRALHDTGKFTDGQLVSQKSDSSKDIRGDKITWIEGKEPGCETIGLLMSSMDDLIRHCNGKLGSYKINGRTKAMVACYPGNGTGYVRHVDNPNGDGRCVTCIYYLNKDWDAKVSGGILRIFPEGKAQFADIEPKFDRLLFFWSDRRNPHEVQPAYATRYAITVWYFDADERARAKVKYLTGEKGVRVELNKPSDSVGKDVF

Here are results for one compound from ChEMBL document CHEMBL4145565, “Prolyl Hydroxylase Inhibitors: A Breakthrough in the Therapy of Anemia Associated with Chronic Diseases” (J Med Chem, 2018).

SMILES strings stand for the structures.

Compound `O=C(O)CNC(=O)c1ncc(-c2cccc(Cl)c2)cc1O` came in with an IC50 of 13.7 µM.
